Measured values published in patent publication US20260042764A1, “COMPOSITIONS AND METHODS FOR INHIBITION OF KRAS” (TheRas, Inc., priority 2022, published 2026).
Read-outs that look alike come from different tables or passages of the source.

Protein sequences, listed by entry. Tags and fused reporters are not part of them. Residues count along the entry.
UniProt P01116, 1-169 isoform 2 G12D limits assumed: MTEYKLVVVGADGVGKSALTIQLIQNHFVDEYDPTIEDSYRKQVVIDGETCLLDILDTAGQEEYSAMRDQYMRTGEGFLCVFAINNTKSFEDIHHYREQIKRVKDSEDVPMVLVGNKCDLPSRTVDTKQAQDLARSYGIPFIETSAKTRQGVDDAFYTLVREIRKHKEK
UniProt P01116, 1-169 isoform 2 G12R limits assumed: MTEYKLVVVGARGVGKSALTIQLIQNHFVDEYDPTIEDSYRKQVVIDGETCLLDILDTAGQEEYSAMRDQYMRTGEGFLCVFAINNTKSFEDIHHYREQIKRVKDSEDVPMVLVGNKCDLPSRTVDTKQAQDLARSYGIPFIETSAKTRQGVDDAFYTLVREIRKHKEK
UniProt P01116, 2-169 isoform 2 G12D limits assumed: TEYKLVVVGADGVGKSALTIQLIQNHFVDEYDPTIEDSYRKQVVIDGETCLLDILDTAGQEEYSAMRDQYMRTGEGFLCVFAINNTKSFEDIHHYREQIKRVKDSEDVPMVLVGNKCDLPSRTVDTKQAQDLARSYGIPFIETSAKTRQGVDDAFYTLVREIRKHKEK
UniProt P01116, 2-169 isoform 2 G12V limits assumed: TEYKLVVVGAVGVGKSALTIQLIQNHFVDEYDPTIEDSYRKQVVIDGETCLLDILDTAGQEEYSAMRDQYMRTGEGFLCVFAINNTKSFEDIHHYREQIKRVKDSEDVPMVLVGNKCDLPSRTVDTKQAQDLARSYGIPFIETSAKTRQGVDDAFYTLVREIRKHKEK

Key:
[1] = molecular target: Avi-KRAS G12D (1-169) GppNHp/RAF1 RBD-3xFLAG (52-151) (Homo sapiens, UniProt P01116, G12D); test: Raf1-KRAS G12D-GppNHP disruption HTRF assay (Biological Example 1); conditions: read-out: Raf1-GppNHp-KRAS G12D disruption; KRAS G12D, GppNHp-loaded; class symbols
[2] = molecular target: Avi-KRAS G12R (1-169) GppNHp/RAF1 RBD-3xFLAG (52-151) (Homo sapiens, UniProt P01116, G12R); test: Raf1-KRAS G12R-GppNHP disruption HTRF assay (Biological Example 1); conditions: read-out: Raf1-GppNHp-KRAS G12R disruption; KRAS G12R, GppNHp-loaded; class symbols
[3] = test system: GP2d cells (KRAS G12D); test: Cell-based pERK HTRF assay in GP2d cell (Biological Example 2)
[4] = molecular target: Avi-KRAS G12D (2-169) GTP/RAF1 RBD-3xFLAG (51-131) (Homo sapiens, UniProt P01116, G12D); test: Raf1-KRAS G12D-GTP disruption HTRF assay (Biological Example 3); conditions: read-out: Raf1-GTP-KRAS G12D disruption, GTP-loaded
Procedure: (§1) Biological Example 3: Disrupting RAS-Effector Binding HTRF Assay
(§2) A protein:protein interaction (PPI) Homogeneous Time Resolved Fluorescence (HTRF) assay was used to determine the effectiveness of compounds in disrupting KRAS protein and effector (RAF1) binding.
(§3) The HTRF assay used the following reagents and proteins: (i) 50 nM Avi-KRAS G12D (2-169) GTP/RAF1 RBD-3xFLAG (51-131): (ii) 50 nM Avi-KRAS G12C (2-169) GTP/RAF1 RBD-3xFLAG (51-131): (iii) 50 nM Avi-KRAS G12V (2-169) GTP/RAF1 RBD-3xFLAG (51-131); (iv) 50 nM Avi-KRAS WT (2-169) GTP/RAF1 RBD-3xFLAG (51-131); and (v) 75 nM 3xFLAG-RAF1 RBD (51-131)-Avi. The assay buffer included: 50 mM Tris pH 7.5 (Invitrogen, 15567-027), 100 mM NaCl (Sigma, S5150-IL), 5 mM MgCl2 (Sigma, 63069), 0.1% BSA (Sigma, A7030), 0.01% Tween 20 (Sigma, P7949), 10% DMSO (Cell Signaling, 12611). The bead buffer included: 50 mM Tris pH 7.5 (Invitrogen, 15567-027), 0.01% Tween 20 (Sigma, P7949). An assay volume of 20 μL was used in a 384 well plate-low volume format. Compound titration: 30-0.005 μM, 3x dilution series.
(§4) The HTRF assay employed the following protocol: […]
(§5) Plates were analyzed on an Envision plate reader using the following setting: Excitation 320 nm, Bandwidth 75 nm; Emission 615 nm, Bandwidth 85 nm; Gain 100%; Flashes 100; Lag 60 μs. […] Data was plotted and analyzed using Prism 8. […]

[5] = molecular target: Avi-KRAS G12V (2-169) GTP/RAF1 RBD-3xFLAG (51-131) (Homo sapiens, UniProt P01116, G12V); test: Raf1-KRAS G12V-GTP disruption HTRF assay (Biological Example 3); conditions: read-out: Raf1-GTP-KRAS G12V disruption, GTP-loaded
Procedure: as §1, §2, §3, §4, §5

[6] = test system: MKN1 cells (KRAS amplification); test: Cell-based pERK HTRF assay in MKN1 cells (Biological Example 5); conditions: read-out: MKN pERK HTRF IC50
Procedure: Biological Example 5: Cell-based PERK HTRF assay in AsPC-1, SW1900, HPAC, Capan-2, RKN, H358, HCT116, KP-2, H1573, A549, MKN1, and HT1080 cells
The inhibition of ERK phosphorylation, as measured using the HTRF Advanced Phospho-ERK 1/2 (Thr202/Tyr204) Detection Assay kit (Perkin Elmer), was used to determine the effectiveness of test compounds in disrupting KRAS-driven protein/effector signaling in cells.
On day 1, cells were seeded into 96-well plates at 2.5×10^4 cells/well in 100 μL of complete growth media supplemented with 10% fetal bovine serum (FBS) and incubated at 37° C., in the presence of 5% CO2.
On day 2, cells were treated with compounds diluted in DMSO at 0.25% final DMSO concentration. Compounds were dosed in a 9-point concentration curve with three-fold dilution between concentrations. Cells were incubated in the presence of compound for two hours at 37° C. […]
Following this incubation period, plates were centrifuged at 500×g for one minute and analyzed on a CLARIOstar plate reader. Data was imported into Microsoft Excel and the signal from the 665 nm channel was divided by the signal from the 620 nm channel. % pERK was calculated as: […]
Data was imported to the Prism software package (Graphpad) and EC50 values were calculated using the log (inhibitor) vs, response—variable slopc (Four parameters) model.

What does the source list for `CCN(c1nc(OC[C@@]23CCCN2C[C@H](F)C3)nc2c(F)c(-c3ccc(F)c4sc(N)c(C#N)c34)c(C(F)(F)F)cc12)[C@H]1CCN(C(=O)OC2COC2)C1`?
IC50 [1]: < 100 nM; IC50 [2]: < 100 nM; IC50 ([3]; read-out: PERK-Gp2D-, pERK HTRF, class symbols): < 100 nM; IC50 ([3]; read-out: pERK-Gp2D): < 100 nM; IC50 [4]: < 100 nM; IC50 [5]: 100 to 1000 nM; IC50 [6]: < 100 nM
